Data: US20250115600A1, “COVALENT MODIFIERS OF AKT1 AND USES THEREOF” (Terremoto Biosciences, Inc., priority 2022, published 2025)

Sequences of proteins named here, by UniProt entry; tags and fusion partners are left off. A change or cut given only in a name is not applied to a line headed by its entry.
UniProt P31749: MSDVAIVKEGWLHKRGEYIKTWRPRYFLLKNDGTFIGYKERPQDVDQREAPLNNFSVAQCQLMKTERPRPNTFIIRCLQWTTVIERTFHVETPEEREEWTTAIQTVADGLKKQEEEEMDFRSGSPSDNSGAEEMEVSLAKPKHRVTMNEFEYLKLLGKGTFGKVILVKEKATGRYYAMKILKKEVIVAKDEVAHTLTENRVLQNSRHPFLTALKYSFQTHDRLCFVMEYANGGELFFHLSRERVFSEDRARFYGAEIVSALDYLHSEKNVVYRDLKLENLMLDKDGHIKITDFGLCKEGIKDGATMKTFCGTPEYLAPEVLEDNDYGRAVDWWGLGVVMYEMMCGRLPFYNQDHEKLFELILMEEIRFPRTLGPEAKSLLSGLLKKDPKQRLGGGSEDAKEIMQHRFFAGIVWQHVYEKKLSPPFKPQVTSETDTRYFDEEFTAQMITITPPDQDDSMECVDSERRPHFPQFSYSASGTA

Biological target: AKT1 WT (Homo sapiens (Human), UniProt P31749)
Assay: Live cell target engagement (NanoBRET) in HEK293 cells
Type: cell-based
Details: HEK293, 2 hours at 37° C.

Nc1ncccc1-c1nc2ccc(N3C4CCC3COC4)nc2n1-c1ccc(CNC(=O)Cc2ccc(C=O)c(O)c2)cc1 [Example 9, N-(4-(2-(2-aminopyridin-3-yl)-5-(3-oxa-8-azabicyclo[3.2.1]octan-8-yl)-3H-imidazo[4,5-b]pyridin-3-yl)benzyl)-2-(4-formyl-3-hydroxyphenyl)acetamide]
IC50: > 500 nM
